Reference: US10150728B2, “Alkylene derivatives” (Shionogi & Co., Ltd., priority 2013, dated 2018)

The chains behind the UniProt entries cited, without tags or fusion partners. Residues count along the entry.
UniProt O00763, 27-2458: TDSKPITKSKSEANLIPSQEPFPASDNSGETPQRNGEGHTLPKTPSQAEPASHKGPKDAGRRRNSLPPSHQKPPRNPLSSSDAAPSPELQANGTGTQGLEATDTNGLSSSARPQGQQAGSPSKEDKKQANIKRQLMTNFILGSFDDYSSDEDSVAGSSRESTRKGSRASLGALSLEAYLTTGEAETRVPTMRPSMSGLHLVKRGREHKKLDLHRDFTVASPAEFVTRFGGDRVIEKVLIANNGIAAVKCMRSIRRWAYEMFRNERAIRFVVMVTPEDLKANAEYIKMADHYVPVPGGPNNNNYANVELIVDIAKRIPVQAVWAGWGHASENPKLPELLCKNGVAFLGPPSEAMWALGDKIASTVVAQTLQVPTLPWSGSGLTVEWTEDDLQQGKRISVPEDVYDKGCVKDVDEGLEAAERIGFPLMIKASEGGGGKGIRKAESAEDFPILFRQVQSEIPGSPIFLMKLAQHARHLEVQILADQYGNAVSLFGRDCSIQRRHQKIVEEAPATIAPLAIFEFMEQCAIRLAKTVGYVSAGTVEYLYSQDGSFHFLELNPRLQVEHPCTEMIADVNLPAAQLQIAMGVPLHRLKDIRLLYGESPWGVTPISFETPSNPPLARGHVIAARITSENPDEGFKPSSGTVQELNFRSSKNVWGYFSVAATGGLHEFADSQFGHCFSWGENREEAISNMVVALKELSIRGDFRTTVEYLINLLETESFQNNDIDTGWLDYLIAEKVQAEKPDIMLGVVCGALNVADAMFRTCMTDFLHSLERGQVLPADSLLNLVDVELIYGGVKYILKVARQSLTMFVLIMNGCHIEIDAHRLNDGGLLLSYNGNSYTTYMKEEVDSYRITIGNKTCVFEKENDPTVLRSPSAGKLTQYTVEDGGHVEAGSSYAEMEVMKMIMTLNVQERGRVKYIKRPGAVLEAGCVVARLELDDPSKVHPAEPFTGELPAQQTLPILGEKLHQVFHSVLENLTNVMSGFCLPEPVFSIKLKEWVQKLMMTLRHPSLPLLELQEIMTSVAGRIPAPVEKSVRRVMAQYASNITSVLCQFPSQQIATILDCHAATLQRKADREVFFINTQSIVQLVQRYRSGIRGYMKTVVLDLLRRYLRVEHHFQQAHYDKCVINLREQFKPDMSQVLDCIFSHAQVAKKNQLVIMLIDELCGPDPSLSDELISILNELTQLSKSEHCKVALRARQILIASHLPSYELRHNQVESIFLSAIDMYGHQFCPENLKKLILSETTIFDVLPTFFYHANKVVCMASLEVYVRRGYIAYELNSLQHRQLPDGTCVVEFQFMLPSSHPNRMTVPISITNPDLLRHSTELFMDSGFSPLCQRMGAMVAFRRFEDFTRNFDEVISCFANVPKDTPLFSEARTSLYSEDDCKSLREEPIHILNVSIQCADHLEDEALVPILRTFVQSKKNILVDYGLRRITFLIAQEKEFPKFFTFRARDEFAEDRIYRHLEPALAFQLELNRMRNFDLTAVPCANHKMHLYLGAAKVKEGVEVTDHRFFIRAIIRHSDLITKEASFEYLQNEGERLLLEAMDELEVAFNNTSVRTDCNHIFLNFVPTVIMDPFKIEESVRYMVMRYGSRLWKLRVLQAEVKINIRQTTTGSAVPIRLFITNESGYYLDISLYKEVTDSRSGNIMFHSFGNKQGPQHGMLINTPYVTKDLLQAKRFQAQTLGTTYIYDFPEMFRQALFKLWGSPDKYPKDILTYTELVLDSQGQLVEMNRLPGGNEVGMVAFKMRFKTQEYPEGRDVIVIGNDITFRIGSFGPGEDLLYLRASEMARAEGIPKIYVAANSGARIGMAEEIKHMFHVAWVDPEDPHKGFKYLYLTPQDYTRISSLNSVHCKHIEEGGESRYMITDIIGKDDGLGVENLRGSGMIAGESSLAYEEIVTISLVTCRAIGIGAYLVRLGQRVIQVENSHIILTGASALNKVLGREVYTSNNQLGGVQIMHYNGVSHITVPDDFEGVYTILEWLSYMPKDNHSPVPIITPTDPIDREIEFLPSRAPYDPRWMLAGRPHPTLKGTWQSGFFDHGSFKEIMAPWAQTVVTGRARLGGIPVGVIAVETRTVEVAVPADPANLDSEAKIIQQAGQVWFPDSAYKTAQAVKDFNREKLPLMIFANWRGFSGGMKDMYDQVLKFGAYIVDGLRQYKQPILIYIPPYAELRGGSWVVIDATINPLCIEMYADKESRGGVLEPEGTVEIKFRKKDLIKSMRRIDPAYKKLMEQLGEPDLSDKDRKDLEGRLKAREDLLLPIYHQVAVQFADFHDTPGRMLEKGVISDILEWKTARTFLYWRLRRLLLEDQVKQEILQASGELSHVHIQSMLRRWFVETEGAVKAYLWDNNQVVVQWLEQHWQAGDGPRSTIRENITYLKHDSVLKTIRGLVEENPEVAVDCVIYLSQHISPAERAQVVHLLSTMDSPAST

Biological target: recombinant human ACC2 (Homo sapiens (Human), UniProt O00763)
Assay: Measurement of inhibitory activity on human ACC2 (MALDI-TOF MS, acetyl CoA to malonyl CoA conversion)
Format: biochemical
Conditions: Tables 155-159
Excerpt: Preparation 1: Preparation of Recombinant Human ACC2
After a cDNA encoding human ACC2 (27 amino acid residue to 2458 amino acid residues from the N-terminus) was cloned from human kidney cDNA library (Clontech), human ACC2 gene containing His-tag sequence at 5′ terminus was inserted into pFastBac1 (Invitrogen). Recombinant baculovirus was generated using Bac-to-Bac baculovirus expression system (Invitrogen) according to the manufacturer's protocol. To express human ACC2, Sf-9 cells were infected with recombinant baculovirus. After infected cells were disrupted, the filtrated lysate was subjected to Ni-affinity chromatography and anion-exchange chromatography. The fractions containing human ACC2 protein were pooled as recombinant human ACC2 solution.
The Measurement of Inhibitory Activity on Human ACC1 and the ACC2
Recombinant human ACC1 and recombinant human ACC2, which were prepared by the method mentioned above, were preincubated with assay buffer solution (50 mM HEPES-KOH (pH 7.4), 10 mM magnesium chloride, 6-10 mM potassium citrate, 4 mM reduced form of glutathione, 1.5 mg/ml bovine serum albumin) for one hour. […] Then, after the samples were cocrystallized with CHCA (α-cyano-4-hydroxy cinnamic acid) matrices on MALDI target plate, by using the matrix assist laser […] time-of-flight mass spectrometer (MALDI-TOF MS), samples were measured in reflector negative mode. […]

SMILES: CC(=O)N[C@@H](C)COC1CC(COc2nccc(-c3csc(C)n3)c2Cl)C1 (stereo partly shown) [Compound I-423]
- IC50: 72 nM
